Laboratory results as given in US20030162783A1 (priority 1999, published 2003).

Target: T1, NMDA receptor glycine site (Rattus norvegicus, UniProt P35439)
T1 construct: brain membranes bearing the receptor; tissue Analytical Biological Services Inc; host or cells: rat brain membranes (cerebral cortex and hippocampus, male Sprague Dawley rats)
Assay: Test A: Inhibition of binding of [3H]-MDL105,519 to brain membranes
From the text: Test A: Inhibition of Binding of [^3H]-MDL105,519:
Binding of compounds to the NMDA receptor glycine site may be assessed by measuring the ability of test compounds to inhibit the binding of tritiated MDL105,519 to brain membranes bearing the receptor.
Briefly, fresh brain tissue including cerebral cortex and hippocampus from male Sprague Dawley rats was homogenized in 0.32 M sucrose and centrifuged at low speed to separate cellular membranes from other cellular components. The membranes were then washed 3 times using deionized water, followed by treatment with 0.04% Triton X-100. Finally, membranes were washed six times in 50 mM Tris citrate buffer, pH 7.4, and frozen at −80° C. until use.
[^3H]MDL105,519 (72 Ci/mmol) was purchased from Amersham. Cold MDL105,519 was purchased from Sigma/RBI. […] On the day of the experiment, brain membranes were thawed at room temperature and suspended in 50 mM tris acetate buffer, pH 7.4 (“TAB”). […] Non specific binding was determined by using 100 μM of unlabeled MDL105,519. […] The plates were dried overnight at room temperature and bound radioactivity was measured on a Packard TopCount after the addition of 45 μL per well of the MICROSCINT O. […]
Data was analyzed using a Microsoft Excel spreadsheet and GraphPad Prizm software and potency of compounds is expressed as the Ki (nM).

Substance “7-Chloro-4hydroxy-2-(5-isoxazolino)methyl-1,2,5,10-tetrahydropyridazino[4,5-b]quinoline-1,10-dione [Ex. 7]” has a Ki of 0.039 µM.
